## Apparent affinities of Ab-14 variants for a coronavirus HR2 peptide

The measurements come from Li et al. 2023 (doi:10.1038/s41467-023-39022-2) through the FLAb antibody collection.

Antigen: PDVDLGDISGINAS, a 14-residue peptide of the SARS-CoV-2 spike HR2 region.

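The starting antibody came from a phage panning campaign against this peptide. Designed CDR sequences, proposed from the first random library and measured here. Their group label is 14L_En_Gen (En: ensemble of fine-tuned language models; Gen: genetic algorithm). Affinity was read by AlphaSeq, a pooled yeast mating assay with surface-displayed partners. Pairs that bind mate more often; barcode pairs of the diploids are counted by sequencing. A regression on co-assayed BCL2-family reference pairs converts the normalised counts of each replicate to an apparent Kd. Each pool was mated in six replicate cultures.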

Ab-14 is the parent antibody, in scFv form: VH, then the linker GGGGSGGGGSGGGGS, then VL. The heavy chain is unchanged in all variants.
VH: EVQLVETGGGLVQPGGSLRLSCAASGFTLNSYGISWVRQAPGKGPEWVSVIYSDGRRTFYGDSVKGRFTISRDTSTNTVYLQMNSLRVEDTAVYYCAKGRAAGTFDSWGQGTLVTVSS
VL: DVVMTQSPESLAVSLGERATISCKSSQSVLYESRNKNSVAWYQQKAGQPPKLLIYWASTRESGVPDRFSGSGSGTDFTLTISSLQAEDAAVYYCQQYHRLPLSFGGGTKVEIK

Variants are written as CDR1, CDR2 and CDR3 of the light chain (limits as in the source). Parent: KSSQSVLYESRNKNSVA, WASTRES, QQYHRLPLS.
Numbers give log10(Kd / nM), so 0 is 1 nM and 3 is 1 µM. Smaller is tighter.
A pair that was not seen in that replicate is written "nd"; this usually means weak binding, but a binder can also be missed.
As a blank, each scFv also met three strains without target: over all light chain designs, 4% of these pairings were detected, typically at 2.64 and seldom below 1.59. Also given: how often the same scFv was detected with the empty control strains.

With MISQLMNLGQFAINSVA / QAEIRNQ / QQYDRLPLG the result was 2.43, 2.11, nd, nd, nd, nd (controls 3 of 18).
With KIGMTLNQLLHQKNNVA / DLVMREN / QQYHRLPLS the result was 0.24, 0.32, -0.34, -0.05, 0.10, -0.17 (controls 0 of 18).
With KVSEFMKGLMMRKDSIA / DNNTRNS / QQYDRLPLS the result was 1.99, 4.72, 4.40, nd, nd, nd (controls 1 of 18).
With KIGMTLNQLMHQKNNVA / DLVQREN / QQYHRLPLS the result was 1.50, 2.22, 0.62, 1.46, 2.10, 1.68 (controls 1 of 18).
With MVTQMAMTGMKNKRSVA / NAETREK / QQYNRLPLI the result was 1.73, 1.02, 0.42, 1.30, 1.93, 1.03 (controls 0 of 18).
With HMSMLTLQGLRHRNSVA / QMTTREN / QQYDHLPLS the result was 0.78, 1.10, 0.94, 1.12, 1.23, 0.82 (controls 0 of 18).
With MVSQLMLWGLHAKNSIA / EAQTRLN / QQYDRLPLI the result was 1.71, 2.06, 2.31, 1.19, 1.69, 1.92 (controls 0 of 18).
With KLSGIMRLEQKASNSIA / EVNERSR / QQYDRLPLS the result was 1.13, 1.14, 1.03, 1.19, 1.05, 1.86 (controls 1 of 18).
With MISNVMNTLTREGNNVA / DLQEREK / QQYFRLPLS the result was 0.61, 0.46, 0.34, 0.63, 0.55, 0.70 (controls 0 of 18).
With KISMTTEMELKNRNSVA / ELVTRMS / QQYNRLPLS the result was 0.22, 0.40, 0.70, 0.76, -0.32, 0.41 (controls 0 of 18).
With TIQQMMSLFTQTINNVA / EVSTRLN / QQYDRLPLA the result was 1.87, 1.20, 1.38, 1.93, 1.62, 1.69 (controls 0 of 18).
With TISDLMGHISRIHNNVA / DQNTRED / QQYNRLPLS the result was 0.29, 0.34, 0.18, 0.17, 0.14, 0.22 (controls 0 of 18).
With TISGIMNNAASKHNSVA / NVTMRPN / QQYHRLPLS the result was 1.32, 1.45, 1.20, 1.01, 0.98, 1.21 (controls 1 of 18).
With KVSEFMRGLMMRKDSIA / DNETRES / QQYDRLPLS the result was 1.26, 0.37, 0.41, 0.15, 0.24, 2.09 (controls 1 of 18).
With MVYSAVMAGGSTRNSIA / NAQMRPD / QQYHRLPLS the result was 1.18, 1.71, 1.52, 1.40, 1.54, 1.83 (controls 0 of 18).
With MIYGAQRELGLAANSIA / DNVTRYD / QQYHRLPLS the result was 2.16, 2.52, 1.96, 2.54, 2.31, 2.12 (controls 3 of 18).
With MMSSLMGYESRHINNVA / QTSTREE / QQYDRLPLI the result was 1.49, 0.96, 0.66, 0.50, 0.81, 1.55 (controls 1 of 18).
With TIGATLMQGVRNSSNVA / EVSERLN / QQYDRLPLI the result was 2.16, nd, nd, 2.54, 2.32, 3.34 (controls 1 of 18).
With MISQLYNMGSFAINSVA / QASERCN / QQYDRLPLM the result was 1.51, 1.38, 1.48, 0.99, 1.66, 1.55 (controls 1 of 18).
With MLGATVEGEMRARNSVA / HNSMREN / QQYDRLPLA the result was nd, 2.06, nd, 2.69, 1.21, 3.09 (controls 0 of 18).
With MLSQMWALGSKVKNSVA / QASMRFN / QQYDRLPLM the result was nd, nd, 0.74, nd, 2.90, 1.31 (controls 0 of 18).
With TISQMTSLFSQSINNVA / EVSMREE / QQYDRLPLV the result was 0.83, 0.66, 0.75, 0.70, 0.68, 0.70 (controls 1 of 18).
With KIGMTLNQLMHKKNNVA / DLVMRAN / QQYHRLPLS the result was 0.58, 0.80, 0.52, 0.56, 0.59, 0.38 (controls 2 of 18).
With KIGMTLNMMMHKKNNVA / DLVTRED / QQYHRLPLS the result was 1.57, 0.02, 1.52, 1.21, 1.02, 1.03 (controls 0 of 18).
With MISQLYNMGTFAINSVA / QASVRNE / QQYDRLPLE the result was 2.01, 1.05, nd, nd, nd, 2.09 (controls 1 of 18).
With HLGLATMLEEQVRNSVA / NNSTRED / QQYDRLPLS the result was 2.51, nd, 2.06, 1.39, 2.54, 2.36 (controls 1 of 18).
With HMSMLTLQGMRIRNSVA / QMTTREN / QQYDRLPLS the result was 1.43, 1.18, 0.89, 1.22, 1.38, 1.42 (controls 2 of 18).
With KLSCTSEMELKNRNSVA / ELVTRMS / QQYNRLPLS the result was 0.20, 0.84, 0.26, 0.44, 1.45, 1.26 (controls 0 of 18).
With KLSMITGHMSVSKNNVA / EMETREK / QQYDRLPLS the result was 0.49, 0.82, 0.94, 0.74, 1.30, 0.84 (controls 0 of 18).
With KLVQFMNRGTHHTSNIA / DAVNRLD / QQYARLPLA the result was 0.30, 0.08, -0.08, -0.02, 0.34, 0.43 (controls 1 of 18).
With IVSQMMLWGWHAKNSIA / EAQTRLN / QQYDRLPLF the result was nd, nd, nd, nd, nd, nd (controls 0 of 18).
With TISNVMNTLTRQGNNVA / DLQEREN / QQYFRLPLS the result was 0.10, -0.17, 0.38, 0.02, -0.05, 0.28 (controls 1 of 18).
With TISQMSTMFSQSINNVA / EVSTREQ / QQYDRLPLV the result was 2.42, 0.79, 1.84, 1.12, 1.04, 1.03 (controls 1 of 18).
With HLKQVLNGVNKKSNSVA / HMNTREE / QQYDRLPLI the result was 0.62, 0.41, 0.50, 0.53, 0.47, 0.64 (controls 0 of 18).
With KISSMVRVGQTHSNSIA / EEAKRAD / QQYHRLPLA the result was nd, nd, 0.97, nd, nd, 2.41 (controls 1 of 18).
With MISQVMNTLTRNGDNVA / DLAEREQ / QQYFRLPLS the result was 0.39, 0.77, 0.71, 0.86, 0.42, 0.31 (controls 2 of 18).
With HITMGMYVSGRHHSNIA / QAETREK / QQYDRLPLS the result was 0.69, 1.25, 0.63, 0.56, 0.77, 0.61 (controls 0 of 18).
With HMSMLTLSGQRHRNAVA / QMTTREN / QQYDRLPLS the result was 1.53, nd, 2.14, 2.35, 3.03, 2.19 (controls 0 of 18).
With KLYSVTGTEKVNGNNVA / EMETREN / QQYNRLPLS the result was 0.68, 1.36, 0.09, 1.49, 0.87, 0.59 (controls 0 of 18).
With MISTVMNQLTHEGNNVA / DLQEREK / QQYFRLPLS the result was 0.70, 1.13, 0.77, 0.72, 1.37, 0.66 (controls 1 of 18).
With KISQMVRVGSTAANSIA / EEVTRAK / QQYHRLPLA the result was 0.71, 0.89, 0.52, 0.17, 0.08, 0.37 (controls 0 of 18).
With HITYGMYVSGRHTSNIA / QAETRMQ / QQYDRLPLI the result was 0.78, 0.76, 0.55, 0.67, 0.36, 0.69 (controls 2 of 18).

The parent sequence was in this pool as ten entries: three were never detected, three once, and four in most replicates, with averages from 0.34 to 2.37.
The authors' rule: three or more of the six replicates give a measured affinity, fewer mean a poor binder.
The range of this assay differs from that of the first round, and the authors advise against merging the two.